From publication PMC12051786, “Photoisomerization of Azobenzene‐Extended Charybdotoxin for the Optical Control of Kv1.2 Potassium Channel Activity” (Angewandte Chemie (International Ed. in English), 2025)

The chains behind the UniProt entries cited, without tags or fusion partners.
UniProt P63141, whole entry: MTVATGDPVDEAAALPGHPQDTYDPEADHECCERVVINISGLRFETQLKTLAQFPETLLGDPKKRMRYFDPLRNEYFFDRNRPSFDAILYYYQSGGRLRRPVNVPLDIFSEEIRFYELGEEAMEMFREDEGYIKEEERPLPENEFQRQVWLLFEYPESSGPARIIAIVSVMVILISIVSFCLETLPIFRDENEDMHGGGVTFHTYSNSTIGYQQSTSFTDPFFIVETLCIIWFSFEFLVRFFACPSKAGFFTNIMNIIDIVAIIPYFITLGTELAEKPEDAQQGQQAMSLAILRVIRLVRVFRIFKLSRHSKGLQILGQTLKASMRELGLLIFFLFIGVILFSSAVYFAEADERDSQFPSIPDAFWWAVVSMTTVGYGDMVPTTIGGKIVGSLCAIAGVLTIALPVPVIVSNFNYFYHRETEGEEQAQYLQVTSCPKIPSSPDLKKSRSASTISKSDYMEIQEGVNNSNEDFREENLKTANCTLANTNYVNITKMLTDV

Assays:
[1] = Photo-isomerization kinetics (trans/cis) followed by absorbance under illumination; assay type: physicochemical; details: for Ratio (t1/2 trans → cis / t1/2 cis → trans): fold faster back-switching to trans
[2] = target: T1, mouse Kv1.2 channels (Mus musculus, UniProt P63141); experiment: Block of Kv1.2 K+ current, automated patch-clamp (SyncroPatch 384PE); assay type: cell-based
T1 construct: expressed in transfected cells; host or cells: L929 (mouse fibroblast) cell line stably expressing mKv1.2, kept under G418 selection

SMILES: CSCC[C@@H]1NC(=O)[C@@H]2CSSC[C@H](NC(=O)[C@H](CO)NC(=O)[C@@H](NC(=O)[C@H](CC(N)=O)NC(=O)[C@@H](NC(=O)[C@H](Cc3ccccc3)NC(=O)[C@@H]3CCC(=O)N3)[C@@H](C)O)C(C)C)C(=O)N[C@@H]([C@@H](C)O)C(=O)N[C@@H](CCn3cc(CNC(=O)c4ccc(/N=N/c5ccc(C(=O)NCc6cn(CC[C@@H]7NC(=O)[C@H]([C@@H](C)O)NC(=O)[C@@H](NC(=O)[C@H](CO)NC(=O)[C@@H](NC(=O)[C@H](CC(N)=O)NC(=O)[C@@H](NC(=O)[C@H](Cc8ccccc8)NC(=O)[C@@H]8CCC(=O)N8)[C@@H](C)O)C(C)C)CSSC[C@@H]8NC(=O)[C@H](CCCCN)NC(=O)CNC(=O)[C@H](CCCNC(=N)N)NC(=O)[C@H](CO)NC(=O)[C@H]([C@@H](C)O)NC(=O)[C@H](CC(N)=O)NC(=O)[C@H](Cc9c[nH]cn9)NC(=O)[C@H](CC(C)C)NC(=O)[C@H](CCCNC(=N)N)NC(=O)[C@H](CCC(N)=O)NC(=O)[C@@H]9CSSC[C@@H](C(=O)N[C@@H](Cc%10ccc(O)cc%10)C(=O)N[C@@H](CO)C(=O)O)NC(=O)[C@H](CCCNC(=N)N)NC(=O)[C@H](CSSC[C@H](NC(=O)[C@H](CCC(=O)O)NC(=O)[C@H](CCCCN)NC(=O)[C@H](CO)NC7=O)C(=O)N[C@@H](Cc7c[nH]c%10ccccc7%10)C(=O)N[C@@H](CO)C(=O)N[C@@H](C(C)C)C(=O)N9)NC(=O)[C@H](CCCCN)NC(=O)[C@H](CCCCN)NC(=O)[C@H](CC(N)=O)NC(=O)[C@H](CCSC)NC8=O)nn6)cc5)cc4)nn3)C(=O)N[C@@H](CO)C(=O)N[C@@H](CCCCN)C(=O)N[C@@H](CCC(=O)O)C(=O)N[C@H]3CSSC[C@H](NC(=O)[C@H](CCCCN)NC(=O)[C@H](CCCCN)NC(=O)[C@H](CC(N)=O)NC1=O)C(=O)N[C@@H](CCCNC(=N)N)C(=O)N[C@H](C(=O)N[C@@H](Cc1ccc(O)cc1)C(=O)N[C@@H](CO)C(=O)O)CSSC[C@H](NC(=O)[C@H](C(C)C)NC(=O)[C@H](CO)NC(=O)[C@H](Cc1c[nH]c4ccccc14)NC3=O)C(=O)N[C@@H](CCC(N)=O)C(=O)N[C@@H](CCCNC(=N)N)C(=O)N[C@@H](CC(C)C)C(=O)N[C@@H](Cc1c[nH]cn1)C(=O)N[C@@H](CC(N)=O)C(=O)N[C@@H]([C@@H](C)O)C(=O)N[C@@H](CO)C(=O)N[C@@H](CCCNC(=N)N)C(=O)NCC(=O)N[C@@H](CCCCN)C(=O)N2 [ChTx‐Ah^9‐Az1‐Ah^9‐ChTx]
- Ratio (t1/2 trans → cis / t1/2 cis → trans) [1]: 5.0

SMILES: CSCC[C@@H]1NC(=O)[C@@H]2CSSC[C@H](NC(=O)[C@H](CO)NC(=O)[C@@H](NC(=O)[C@H](CC(N)=O)NC(=O)[C@@H](NC(=O)[C@H](Cc3ccccc3)NC(=O)[C@@H]3CCC(=O)N3)[C@@H](C)O)C(C)C)C(=O)N[C@@H]([C@@H](C)O)C(=O)N[C@@H]([C@@H](C)O)C(=O)N[C@@H](CO)C(=O)N[C@@H](CCCCN)C(=O)N[C@@H](CCn3cc(CNC(=O)c4ccc(/N=N/c5ccc(C(=O)NCc6cn(CC[C@@H]7NC(=O)[C@H](CCCCN)NC(=O)[C@H](CO)NC(=O)[C@H]([C@@H](C)O)NC(=O)[C@H]([C@@H](C)O)NC(=O)[C@@H](NC(=O)[C@H](CO)NC(=O)[C@@H](NC(=O)[C@H](CC(N)=O)NC(=O)[C@@H](NC(=O)[C@H](Cc8ccccc8)NC(=O)[C@@H]8CCC(=O)N8)[C@@H](C)O)C(C)C)CSSC[C@@H]8NC(=O)[C@H](CCCCN)NC(=O)CNC(=O)[C@H](CCCNC(=N)N)NC(=O)[C@H](CO)NC(=O)[C@H]([C@@H](C)O)NC(=O)[C@H](CC(N)=O)NC(=O)[C@H](Cc9c[nH]cn9)NC(=O)[C@H](CC(C)C)NC(=O)[C@H](CCCNC(=N)N)NC(=O)[C@H](CCC(N)=O)NC(=O)[C@@H]9CSSC[C@@H](C(=O)N[C@@H](Cc%10ccc(O)cc%10)C(=O)N[C@@H](CO)C(=O)O)NC(=O)[C@H](CCCNC(=N)N)NC(=O)[C@H](CSSC[C@H](NC7=O)C(=O)N[C@@H](Cc7c[nH]c%10ccccc7%10)C(=O)N[C@@H](CO)C(=O)N[C@@H](C(C)C)C(=O)N9)NC(=O)[C@H](CCCCN)NC(=O)[C@H](CCCCN)NC(=O)[C@H](CC(N)=O)NC(=O)[C@H](CCSC)NC8=O)nn6)cc5)cc4)nn3)C(=O)N[C@H]3CSSC[C@H](NC(=O)[C@H](CCCCN)NC(=O)[C@H](CCCCN)NC(=O)[C@H](CC(N)=O)NC1=O)C(=O)N[C@@H](CCCNC(=N)N)C(=O)N[C@H](C(=O)N[C@@H](Cc1ccc(O)cc1)C(=O)N[C@@H](CO)C(=O)O)CSSC[C@H](NC(=O)[C@H](C(C)C)NC(=O)[C@H](CO)NC(=O)[C@H](Cc1c[nH]c4ccccc14)NC3=O)C(=O)N[C@@H](CCC(N)=O)C(=O)N[C@@H](CCCNC(=N)N)C(=O)N[C@@H](CC(C)C)C(=O)N[C@@H](Cc1c[nH]cn1)C(=O)N[C@@H](CC(N)=O)C(=O)N[C@@H]([C@@H](C)O)C(=O)N[C@@H](CO)C(=O)N[C@@H](CCCNC(=N)N)C(=O)NCC(=O)N[C@@H](CCCCN)C(=O)N2 [ChTx‐Ah^12‐Az1‐Ah^12‐ChTx]
- Ratio (t1/2 trans → cis / t1/2 cis → trans) [1]: 2.3

SMILES: C#CCCC(=O)Nc1ccc(/N=N/c2ccc(NC(=O)CCc3cn(CC[C@@H]4NC(=O)[C@@H]5CSSC[C@@H]6NC(=O)[C@H](CCCCN)NC(=O)[C@H](CCCCN)NC(=O)[C@H](CC(N)=O)NC(=O)[C@H](CCSC)NC(=O)[C@H](CSSC[C@H](NC(=O)[C@H](CO)NC(=O)[C@@H](NC(=O)[C@H](CC(N)=O)NC(=O)[C@@H](NC(=O)[C@H](Cc7ccccc7)NC(=O)[C@@H]7CCC(=O)N7)[C@@H](C)O)C(C)C)C(=O)N[C@@H]([C@@H](C)O)C(=O)N[C@@H]([C@@H](C)O)C(=O)N[C@@H](CO)C(=O)N[C@@H](CCCCN)C(=O)N[C@@H](CCC(=O)O)C(=O)N5)NC(=O)[C@H](CCCCN)NC(=O)CNC(=O)[C@H](CCCNC(=N)N)NC(=O)[C@H](CO)NC(=O)[C@H]([C@@H](C)O)NC(=O)[C@H](CC(N)=O)NC(=O)[C@H](Cc5c[nH]cn5)NC(=O)[C@H](CC(C)C)NC(=O)[C@H](CCCNC(=N)N)NC(=O)[C@H](CCC(N)=O)NC(=O)[C@H](CSSC[C@@H](C(=O)N[C@@H](Cc5ccc(O)cc5)C(=O)N[C@@H](CO)C(=O)O)NC(=O)[C@H](CCCNC(=N)N)NC6=O)NC(=O)[C@H](C(C)C)NC(=O)[C@H](CO)NC4=O)nn3)cc2)cc1 [ChTx‐Ah^14‐Az2]
- Time to peak of the increase in Kv1.2 current block on illumination at 385 nm ([2]; 10 nM dark-adapted peptide, L929-mKv1.2 cells, n = 10): ≤ 20 s
- Time to restoration of initial Kv1.2 current level on back-switching at 490 nm ([2]; 10 nM peptide, L929-mKv1.2 cells, n = 10): ≈ 50 s
- Hill slope nH, cis ([2]; Az2 conjugate, 385 nm, n = 40): 0.6
- Hill slope nH, trans ([2]; Az2 conjugate, 490 nm, n = 41): 0.9
- Gain of potency of cis over trans configuration ([2]; ratio of trans IC50 to cis IC50, Kv1.2): 4.3 fold
- Loss of potency versus trans ChTx-Ah14-Az1 (fold less potent) ([2]; trans configuration at 490 nm, ratio of IC50 values): 1.5 fold

SMILES: C#CCNC(=O)c1ccc(/N=N/c2ccc(C(=O)NCc3cn(CC[C@@H]4NC(=O)[C@H](CCC(N)=O)NC(=O)[C@@H]5CSSC[C@@H](C(=O)N[C@@H](Cc6ccc(O)cc6)C(=O)N[C@@H](CO)C(=O)O)NC(=O)[C@H](CCCNC(=N)N)NC(=O)[C@@H]6CSSC[C@H](NC(=O)[C@H](CCC(=O)O)NC(=O)[C@H](CCCCN)NC(=O)[C@H](CO)NC(=O)[C@H]([C@@H](C)O)NC(=O)[C@H]([C@@H](C)O)NC(=O)[C@@H](NC(=O)[C@H](CO)NC(=O)[C@@H](NC(=O)[C@H](CC(N)=O)NC(=O)[C@@H](NC(=O)[C@H](Cc7ccccc7)NC(=O)[C@@H]7CCC(=O)N7)[C@@H](C)O)C(C)C)CSSC[C@H](NC(=O)[C@H](CCCCN)NC(=O)CNC(=O)[C@H](CCCNC(=N)N)NC(=O)[C@H](CO)NC(=O)[C@H]([C@@H](C)O)NC(=O)[C@H](CC(N)=O)NC(=O)[C@H](Cc7c[nH]cn7)NC(=O)[C@H](CC(C)C)NC4=O)C(=O)N[C@@H](CCSC)C(=O)N[C@@H](CC(N)=O)C(=O)N[C@@H](CCCCN)C(=O)N[C@@H](CCCCN)C(=O)N6)C(=O)N[C@@H](Cc4c[nH]c6ccccc46)C(=O)N[C@@H](CO)C(=O)N[C@@H](C(C)C)C(=O)N5)nn3)cc2)cc1 [ChTx‐Ah^19‐Az1]
- Ratio (t1/2 trans → cis / t1/2 cis → trans) [1]: 15.3
- t1/2 cis → trans [95% CI] ([1]; half isomerization time, illumination 435 nm, 9.5 mW cm−2, conjugates dissolved in water, absorbance): 2.1 s

SMILES: CSCC[C@@H]1NC(=O)[C@@H]2CSSC[C@H](NC(=O)[C@H](CO)NC(=O)[C@@H](NC(=O)[C@H](CC(N)=O)NC(=O)[C@@H](NC(=O)[C@H](Cc3ccccc3)NC(=O)[C@@H]3CCC(=O)N3)[C@@H](C)O)C(C)C)C(=O)N[C@@H]([C@@H](C)O)C(=O)N[C@@H]([C@@H](C)O)C(=O)N[C@@H](CO)C(=O)N[C@@H](CCCCN)C(=O)N[C@@H](CCC(=O)O)C(=O)N[C@H]3CSSC[C@H](NC(=O)[C@H](CCCCN)NC(=O)[C@H](CCCCN)NC(=O)[C@H](CC(N)=O)NC1=O)C(=O)N[C@@H](CCCNC(=N)N)C(=O)N[C@H](C(=O)N[C@@H](Cc1ccc(O)cc1)C(=O)N[C@@H](CO)C(=O)O)CSSC[C@H](NC(=O)[C@H](C(C)C)NC(=O)[C@H](CO)NC(=O)[C@H](Cc1c[nH]c4ccccc14)NC3=O)C(=O)N[C@@H](CCC(N)=O)C(=O)N[C@@H](CCn1cc(CNC(=O)c3ccc(/N=N/c4ccc(C(=O)NCc5cn(CC[C@@H]6NC(=O)[C@H](CCC(N)=O)NC(=O)[C@@H]7CSSC[C@@H](C(=O)N[C@@H](Cc8ccc(O)cc8)C(=O)N[C@@H](CO)C(=O)O)NC(=O)[C@H](CCCNC(=N)N)NC(=O)[C@@H]8CSSC[C@H](NC(=O)[C@H](CCC(=O)O)NC(=O)[C@H](CCCCN)NC(=O)[C@H](CO)NC(=O)[C@H]([C@@H](C)O)NC(=O)[C@H]([C@@H](C)O)NC(=O)[C@@H](NC(=O)[C@H](CO)NC(=O)[C@@H](NC(=O)[C@H](CC(N)=O)NC(=O)[C@@H](NC(=O)[C@H](Cc9ccccc9)NC(=O)[C@@H]9CCC(=O)N9)[C@@H](C)O)C(C)C)CSSC[C@H](NC(=O)[C@H](CCCCN)NC(=O)CNC(=O)[C@H](CCCNC(=N)N)NC(=O)[C@H](CO)NC(=O)[C@H]([C@@H](C)O)NC(=O)[C@H](CC(N)=O)NC(=O)[C@H](Cc9c[nH]cn9)NC(=O)[C@H](CC(C)C)NC6=O)C(=O)N[C@@H](CCSC)C(=O)N[C@@H](CC(N)=O)C(=O)N[C@@H](CCCCN)C(=O)N[C@@H](CCCCN)C(=O)N8)C(=O)N[C@@H](Cc6c[nH]c8ccccc68)C(=O)N[C@@H](CO)C(=O)N[C@@H](C(C)C)C(=O)N7)nn5)cc4)cc3)nn1)C(=O)N[C@@H](CC(C)C)C(=O)N[C@@H](Cc1c[nH]cn1)C(=O)N[C@@H](CC(N)=O)C(=O)N[C@@H]([C@@H](C)O)C(=O)N[C@@H](CO)C(=O)N[C@@H](CCCNC(=N)N)C(=O)NCC(=O)N[C@@H](CCCCN)C(=O)N2 [ChTx‐Ah^19‐Az1‐Ah^19‐ChTx]
- Ratio (t1/2 trans → cis / t1/2 cis → trans) [1]: 4.3
